This assay concerns the target Adenosine receptor A3 (Homo sapiens, UniProt P0DMS8). As to the kind of experiment: Binding affinity to adenosine A3R (unknown origin).

Protein sequences, listed by entry. Tags and fused reporters are not part of them.
UniProt P0DMS8, whole entry: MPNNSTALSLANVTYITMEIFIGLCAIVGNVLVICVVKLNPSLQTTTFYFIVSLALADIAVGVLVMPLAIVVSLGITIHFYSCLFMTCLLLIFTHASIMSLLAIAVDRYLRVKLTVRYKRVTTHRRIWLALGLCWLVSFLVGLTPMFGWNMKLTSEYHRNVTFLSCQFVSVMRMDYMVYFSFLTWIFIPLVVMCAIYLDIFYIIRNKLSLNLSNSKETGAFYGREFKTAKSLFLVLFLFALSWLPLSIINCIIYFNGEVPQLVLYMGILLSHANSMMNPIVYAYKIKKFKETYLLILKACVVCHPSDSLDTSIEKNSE

A word on the Kd: it is the concentration at which binding is half-saturated. Lower therefore signals higher affinity. `CCCn1cc2c(nc(NC(=O)Nc3ccc(OC)cc3)n3nc(-c4ccco4)nc23)n1` displayed a Kd of 0.55 nM.

The values are drawn from ChEMBL document CHEMBL5108055, “Dual A1/A3 Adenosine Receptor Antagonists: Binding Kinetics and Structure-Activity Relationship Studies Using Mutagenesis and Alchemical Binding Free Energy Calculations” (J Med Chem, 2022).
